Laboratory results reported in ChEMBL document CHEMBL4680278 (J Med Chem, 2020).

Sequences of proteins named here, by UniProt entry; tags and fusion partners are left off.
UniProt P34972, whole entry: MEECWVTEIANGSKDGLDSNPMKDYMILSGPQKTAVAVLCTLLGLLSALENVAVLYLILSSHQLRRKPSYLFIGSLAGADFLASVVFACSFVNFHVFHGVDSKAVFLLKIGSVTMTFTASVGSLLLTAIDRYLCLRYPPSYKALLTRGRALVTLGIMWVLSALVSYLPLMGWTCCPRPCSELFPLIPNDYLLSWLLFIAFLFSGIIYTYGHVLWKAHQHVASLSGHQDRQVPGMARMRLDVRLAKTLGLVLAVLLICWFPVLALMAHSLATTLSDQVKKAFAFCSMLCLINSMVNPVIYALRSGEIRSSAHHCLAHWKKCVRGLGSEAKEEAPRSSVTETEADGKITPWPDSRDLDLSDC

Biological target: Cannabinoid receptor 2 (Homo sapiens, UniProt P34972)
Test: Displacement of [3H]-HU-243 from CB2 receptor (unknown origin) expressed in African green monkey Cos7 cell membranes incubated for 90 mins by radioligand binding assay
Parameters: species or system Membrane

For `C=C(C)[C@H]1CCC(C)=C[C@@H]1c1c(O)cc(CCCCC)cc1O`, the Ki was 203 nM.
